# Assay results published in PubChem BioAssay AID1456 (Vanderbilt High Throughput Screening Facility, 2008).
# Chains of the proteins cited; added tags and fusions are not shown. Lines headed by an entry give the natural chain unless they say otherwise; changes in a name come on top.
# UniProt Q9H2X9: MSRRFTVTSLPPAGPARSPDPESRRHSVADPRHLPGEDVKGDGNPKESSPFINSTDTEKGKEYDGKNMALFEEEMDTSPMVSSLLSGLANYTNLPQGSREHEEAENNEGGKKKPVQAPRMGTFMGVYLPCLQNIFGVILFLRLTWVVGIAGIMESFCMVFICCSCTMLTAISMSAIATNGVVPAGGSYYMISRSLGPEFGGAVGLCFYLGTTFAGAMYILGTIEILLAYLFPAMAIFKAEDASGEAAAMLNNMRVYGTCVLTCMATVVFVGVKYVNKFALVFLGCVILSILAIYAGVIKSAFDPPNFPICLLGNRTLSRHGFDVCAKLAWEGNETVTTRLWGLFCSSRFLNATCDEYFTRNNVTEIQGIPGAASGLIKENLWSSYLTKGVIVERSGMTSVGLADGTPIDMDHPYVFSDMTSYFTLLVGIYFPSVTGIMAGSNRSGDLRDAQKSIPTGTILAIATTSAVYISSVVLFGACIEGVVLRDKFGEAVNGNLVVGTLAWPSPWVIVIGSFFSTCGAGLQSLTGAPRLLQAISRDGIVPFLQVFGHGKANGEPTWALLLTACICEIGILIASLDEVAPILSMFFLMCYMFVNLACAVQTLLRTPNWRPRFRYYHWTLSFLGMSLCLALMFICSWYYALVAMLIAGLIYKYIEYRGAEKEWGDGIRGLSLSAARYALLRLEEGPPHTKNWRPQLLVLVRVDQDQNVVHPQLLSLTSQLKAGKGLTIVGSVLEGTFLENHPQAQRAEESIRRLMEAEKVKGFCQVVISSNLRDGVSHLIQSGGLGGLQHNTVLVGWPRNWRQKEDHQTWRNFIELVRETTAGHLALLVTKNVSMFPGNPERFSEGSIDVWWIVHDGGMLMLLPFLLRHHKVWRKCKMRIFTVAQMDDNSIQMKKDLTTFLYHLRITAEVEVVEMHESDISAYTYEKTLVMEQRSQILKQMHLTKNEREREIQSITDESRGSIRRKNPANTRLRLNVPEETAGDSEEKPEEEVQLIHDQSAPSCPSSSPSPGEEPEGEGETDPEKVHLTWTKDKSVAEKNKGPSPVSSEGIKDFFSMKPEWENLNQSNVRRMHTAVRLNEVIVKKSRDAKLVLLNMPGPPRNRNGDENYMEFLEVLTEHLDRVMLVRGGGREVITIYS
# Values joined by “and” are separate entries in the source; they are usually repeats but may differ in a detail not shown here. Equal values may be shown once. Only a part is listed here, and it is no random draw. Active and inactive are the calls of the source.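 How the source made its calls: active means thallium flux slope and its plate-corrected score both differing from the plate sample mean at a set confidence after two filtering rounds, in either direction; inactive means the rest.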
# Molecular target: Solute carrier family 12 member 5 (Homo sapiens) (UniProt Q9H2X9)
# Assay: modulation of human KCC2 ion transport – cell-based, HEK293 KCC2, FluoZin-2 fluorescence, MLSMR, primary screen (AID 1456)
# Conditions: KCC2 cells, thallium flux FluoZin-2 fluorescence; at 10 µM; active compounds read high
row,Structure (SMILES),B-score
1,COP1(=S)c2c(C)nn(CCC#N)c2N=C(c2ccc(F)cc2)N1C (stereo not given),inactive: 0.865
2,CCC(C)N(CC(C)C)C(=S)SC(NC(C)=O)C(Cl)(Cl)Cl (stereo not given),inactive: -0.0651
3,CCOC(=O)c1ccc(NC(=O)C(C)(CCl)SC)cc1 (stereo not given),inactive: 0.155
4,Cc1cc(SC(NC(=O)c2ccccc2)C(Cl)(Cl)Cl)nc(C(C)C)n1 (stereo not given),inactive: 0.89
5,CCOC(=O)Nc1ccc([As](=O)(O)O)c(O)c1,inactive: -0.0465
6,O=[N+]([O-])c1ccc(Nc2ccc(Oc3ccc([N+](=O)[O-])cc3[N+](=O)[O-])cc2)c([N+](=O)[O-])c1,inactive: -0.305
7,O=P(Nc1ccccn1)(c1cccc2ccccc12)c1cccc2ccccc12,inactive: -1.39
8,Cc1cc(SC(NC=O)C(Cl)(Cl)Cl)ncn1 (stereo not given),inactive: 0.371
9,CCOC(=O)Nc1cccc([As](=O)(O)O)c1,inactive: 0.803
10,Cc1ccc2nc3c(c(C)c2c1)CC(C(Cl)Cl)S3 (stereo not given),inactive: 0.508
11,Cc1ccc(OP(=O)(Nc2ccc([N+](=O)[O-])cn2)Oc2ccc(C)cc2)cc1,inactive: -0.501
12,O=[As](O)(c1ccc(O)cc1)c1ccccc1O,inactive: 1.3
13,C[As](=O)(O)c1cccc(C(=O)O)c1,inactive: -0.593
14,O=[N+]([O-])c1cc([N+](=O)[O-])c(-c2ccn[nH]2)s1,inactive: -0.0282
15,CC(C)NC(=O)NP(=O)(Oc1ccccc1)Oc1ccccc1,inactive: 0.206
16,CCN(CC)C(=S)SC(NC=O)C(Cl)(Cl)Cl (stereo not given),inactive: 1.41
17,CC(C)c1ccc(OP(=O)(Nc2ccccn2)Oc2ccccc2F)cc1 (stereo not given),inactive: -0.629
18,ClCCSc1nnc(-c2cccnc2)o1,inactive: -0.809
19,COc1cc(I)ccc1[As](=O)(O)O,inactive: 0.577
20,COc1ccc2nc(NP(=O)(c3ccccc3)c3ccccc3)sc2c1,inactive: 0.111
21,Cc1cc(=O)[nH]c(N[N+](=O)[O-])n1,inactive: -0.0625
22,O=C(OC1CN2CCC1CC2)C12CC3CC(CC(C3)C1)C2 (stereo not given),inactive: 0.0478
23,Cc1c2c(nc3ccccc13)SC(C(Cl)Cl)C2 (stereo not given),inactive: -1.05

row,Structure (SMILES),B-score
1,COc1ccc(N/C(=N/P(=O)(N2CCOCC2)N2CCOCC2)N2CCOCC2)cc1,inactive: 0.385
2,Cc1cccc(OCC(=O)OC2CN3CCC2CC3)c1 (stereo not given),inactive: 0.726
3,O=[As](O)(c1cccc(O)c1)c1cccc(O)c1,inactive: -0.285
4,O=[As](O)(O)c1cccnc1,inactive: 0.892
5,COc1cc(C(=O)NCC2(N3CCOCC3)CCCCC2)cc(Cl)c1OC(C)C,inactive: -0.00194
6,O=C(OC1CN2CCC1CC2)c1ccc(Cl)cc1 (stereo not given),inactive: 0.927
7,CCOP(=O)(Nc1cccc2ccccc12)OCC,inactive: 0.436
8,COc1cc(C2NCCC3(OCCO3)C2(C)C)cc(OC)c1OC (stereo not given),inactive: -0.825
9,Cc1ccc(NCCc2c([N+](=O)[O-])cc([N+](=O)[O-])cc2[N+](=O)[O-])cc1,inactive: -0.0273
10,Nc1cccc2c([As](=O)(O)O)cccc12,inactive: -0.894
11,Nc1ccccc1[As](=O)(O)c1ccccc1,inactive: 0.0378
12,O=C(O)COc1ccc([As](=O)(O)O)cc1[N+](=O)[O-],inactive: -0.000825
13,CS(=O)(=O)c1cc([N+](=O)[O-])c2no[n+]([O-])c2c1,inactive: 1.25
14,O=P(Nc1nccs1)(Oc1ccccc1)Oc1ccccc1,inactive: -0.168
15,O=P(Nc1nccs1)(c1ccccc1)c1nc2ccccc2s1 (stereo not given),inactive: 2.47
16,CCOP1(=S)c2c(C)nn(CCC#N)c2N=C(c2ccccc2F)N1C (stereo not given),inactive: 1.12
17,O=[N+]([O-])c1ccc2c(c1)nnn2O,inactive: -0.0953
18,CN(C(=O)Cc1ccccc1)[C@@H]1CC[C@]2(CCCO2)C[C@H]1N1CCCC1,inactive: -0.271
19,CCOP1(=S)c2c(C)nn(CCC#N)c2N=C(c2ccc(F)cc2)N1C (stereo not given),inactive: 0.0258
20,NC(=O)Nc1ccc([As](=O)(O)O)cc1,inactive: 1.36
21,O=C(/C=C/c1ccccc1)OC1CN2CCC1CC2 (stereo not given),inactive: -0.899
22,CN(C)C1(CNC(=O)c2ccc(S(C)(=O)=O)cc2)CCCCC1,inactive: 0.254
23,Cc1nn(-c2ccccc2)c2c1P(=O)(N1CCOCC1)N(C)C(c1ccccc1)=N2 (stereo not given),inactive: 0.00554

row,Structure (SMILES),B-score
1,Cc1ccc(OCC(=O)OC2CN3CCC2CC3)cc1 (stereo not given),inactive: 0.094
2,O=[As](O)(c1cccs1)c1cccs1,inactive: 1.2
3,Nc1cccc([As](=O)(O)c2ccccc2)c1,inactive: -0.891
4,CC(C)(C)C(=O)NC(Sc1ncccn1)C(Cl)(Cl)Cl (stereo not given),inactive: -0.773
5,Clc1n[nH]nc1-c1nn[nH][15n]1,inactive: 0.356
6,O=P1(Nc2ccccn2)COc2ccccc2OC1,inactive: -0.0951
7,CC1(CBr)Cn2c(nc3ccccc3c2=O)S1 (stereo not given),inactive: -0.17
8,O=[As](O)(c1ccccc1Br)c1ccccc1Br,inactive: 0.298
9,CN(C(=O)Cc1ccc(Cl)c(Cl)c1)[C@@H]1CCCC[C@H]1N1CCCC1,inactive: -0.258
10,c1nnnn1CCn1cnnn1,inactive: -0.187
11,CC(C)C(=O)NC(Sc1ccccc1)C(Cl)(Cl)Cl (stereo not given),inactive: -1.32
12,O=P(Nc1nccs1)(c1ccccc1)c1ccccc1,inactive: 0.919
13,C[C@H]1OP(=O)(Oc2ccccc2)[C@H](O)[C@H](O)[C@H]1N=[N+]=[N-] (stereo not given in full),inactive: 0.556
14,O=P(Nc1nc2ccccc2s1)(c1ccccc1)c1ccccc1,inactive: 0.996
15,O=P(Nc1ccccn1)(c1ccc(Br)cc1)c1ccc(Br)cc1,inactive: 0.345
16,C(Cc1nn[nH]n1)Cc1nn[nH]n1,inactive: 0.489
17,Nc1ccc([As](=O)(O)c2ccc([N+](=O)[O-])cc2)cc1,inactive: 0.27
18,O=C(OC1CN2CCC1CC2)c1cccc(Cl)c1 (stereo not given),inactive: 0.639
19,CC(=O)NC(SC(=S)N(C)C)C(Cl)(Cl)Cl (stereo not given),inactive: 1.24
20,O=[N+]([O-])c1ncn(CCn2cnc([N+](=O)[O-])n2)n1,inactive: 0.104
21,O=[As](O)(c1ccccc1)c1ccc(O)cc1,inactive: -0.112
22,CCNC(=S)/N=C(\N)N[N+](=O)[O-],inactive: 0.0122
23,O=C(NC1CCS(=O)(=O)C1)NP(=S)(Oc1ccccc1)Oc1ccccc1 (stereo not given),inactive: 1.55

row,Structure (SMILES),B-score
1,Cc1ccc(NP(=O)(Oc2cccc(C)c2)Oc2cccc(C)c2)nc1,inactive: 0.719
2,CCOC(=O)NC(Sc1ccccc1)C(Cl)(Cl)Cl (stereo not given),inactive: 0.558
3,c1ccc(-c2nn[nH]n2)c(-c2nn[nH]n2)c1,inactive: 1.48
4,O=c1c2cc([N+](=O)[O-])ccc2[nH]c2c([N+](=O)[O-])cc([N+](=O)[O-])cc12,active: 7.43
5,CN(C)C(=O)Oc1noc2ccccc12,inactive: -0.31
6,Cc1ccccc1OP(=O)(Nc1ccccn1)Oc1ccccc1C,inactive: -1.43
7,Cc1ccc(OP(=O)(Nc2ccccn2)Oc2ccc(C)cc2)cc1,inactive: -0.321
8,COC(=O)c1cc2c(s1)N=C(c1ccccc1)N(C)P2(=O)N1CCOCC1 (stereo not given),inactive: 0.689
9,CCC(=O)N1C2C3N(C(=O)CC)C1C1N(C(=O)CC)C(C(N1C(=O)CC)N3C(=O)CC)N2C(=O)CC,inactive: 0.497
10,CC(C)(C)C(=O)NC(Sc1ccccc1)C(Cl)(Cl)Cl (stereo not given),inactive: -1.36
11,CCOc1ccc(C2=NCC(CBr)S2)cc1 (stereo not given),inactive: 1.09
12,CC(=O)Nc1ccc(Oc2c([N+](=O)[O-])cc([N+](=O)[O-])cc2[N+](=O)[O-])cc1,inactive: 0.738
13,CC(=O)Nc1ccc([As](=O)(O)O)c(O)c1,inactive: -0.533
14,C[C@H]1OP(=O)(Oc2ccccc2)C[C@@H]2O[C@@H]21 (stereo not given in full),inactive: 0.878
15,C[C@@H]1C=CCP(=O)(Oc2ccccc2)O1 (stereo not given in full),inactive: 0.137
16,Cc1ccc(OP(=O)(Nc2nccs2)Oc2ccc(C)cc2)cc1,inactive: 0.0566
17,COc1ccccc1OP(=O)(Nc1ccc(C)cn1)Oc1ccccc1OC,inactive: 0.715
18,CN1CCCC(OC(=O)C(c2ccccc2)c2ccccc2)C1 (stereo not given),inactive: 0.605
19,Clc1ccc(Cl)c(NC2=NCC(CBr)S2)c1 (stereo not given),inactive: -0.114
20,Cc1ccc(N/C(=N/P(=O)(N2CCOCC2)N2CCOCC2)N2CCOCC2)cc1,inactive: 0.0995
21,Nc1cc(N)c2nonc2c1[N+](=O)[O-],inactive: -0.791
22,O=C(NC(Sc1ccncn1)C(Cl)(Cl)Cl)c1ccccc1 (stereo not given),inactive: 0.786
23,Cc1c2non([O-])c-2c(C)[n+](=O)[n+]1[O-],inactive: 0.341

row,Structure (SMILES),B-score
1,Oc1ccccc1CNc1ccccn1,inactive: -0.109
2,Cc1ccc(NP(=O)(Oc2ccccc2F)Oc2ccccc2F)nc1,inactive: -1.98
3,Cc1cc(SC(NC(=O)c2ccc(F)cc2)C(Cl)(Cl)Cl)ncn1 (stereo not given),inactive: 0.107
4,CCOP(=O)(Nc1ccccc1)OCC,inactive: 0.317 and inactive: -0.151
5,CC(=O)Nc1ccc([As](=O)(O)O)cc1,inactive: -0.256
6,O=C(O)c1ccccc1[As](=O)(O)O,inactive: 0
7,O=P(Nc1nc2ccc(Cl)cc2s1)(c1ccccc1)c1ccccc1,active: 15.3
8,CCN(N=Nc1nonc1N)c1nonc1N,inactive: 0.182
9,Nc1cccc2ccc([As](=O)(O)O)cc12,inactive: 2.07
10,O=C(Nc1cc([As](=O)(O)O)ccc1O)c1ccccc1,inactive: 0.148
11,O=[N+]([O-])c1cccc(NC2=NCC(CBr)S2)c1 (stereo not given),inactive: 0.934
12,O=C(O)CNc1ccc([As](=O)(O)O)cc1,inactive: -0.0251
13,CC(C)(C)C(=O)NC(Sc1ccncn1)C(Cl)(Cl)Cl (stereo not given),inactive: 0.0507
14,O=[N+]([O-])c1ncn(CCn2ncnc2[N+](=O)[O-])n1,inactive: 0.512
15,O=[N+]([O-])c1cccc2n[nH]nc12,inactive: 1.2
16,CC(=O)N1C2C3N(C(C)=O)C1C1N(C(C)=O)C(C(N1C(C)=O)N3C(C)=O)N2C(C)=O,inactive: 0.653
17,O=[N+]([O-])c1cc([N+](=O)[O-])c(CCNc2ccccc2)c([N+](=O)[O-])c1,inactive: -0.666
18,Cc1ccc(NP(=O)(Oc2ccccc2)Oc2ccccc2)nc1,inactive: -1.04
19,CN(C)C(=O)OCCc1n(C)cc[n+]1C,inactive: -0.425
20,CC1CCN(C(=O)Oc2c(Cl)cc(Cl)c3cccnc23)CC1,inactive: -1.43
21,C[N+]1=C2C=CC=CC=C2SC12C([N+](=O)[O-])=CC([N+](=O)[O-])=C[C-]2[N+](=O)[O-] (stereo not given),active: 14.7
22,Nc1ccc([As](=O)(O)c2ccc(N)cc2)cc1,inactive: 1.01
23,CCN(/C(=N/P(=O)(N1CCOCC1)N1CCOCC1)N1CCOCC1)c1ccc(OC)cc1,inactive: -0.00825
